These results are taken from ChEMBL document CHEMBL5576078, “Discovery of a potent, orally available furopyridine derivative as a novel selective bromodomain and extra-terminal domain (BET)-first bromodomain (BD1) inhibitor” (Bioorg Med Chem Lett, 2024).

The nature of data set [1]: in vivo. Particulars: C57BL/6, mouse, po, 10 mg/kg.
The nature of data set [2]: in vivo. As to conditions: C57BL/6, mouse, po, 100 mg/kg.
Data set [3] can be described thus: in vivo. Particulars: C57BL/6, mouse, po, 100 mg/kg. The source holds these as a separate data set.
The nature of data set [4]: in vivo. As to conditions: C57BL/6, mouse, po, 30 mg/kg.
A short description of data set [5]: in vivo. Particulars: C57BL/6, mouse, po, 30 mg/kg. The source holds these as a separate data set.
A short description of data set [6]: in vivo. Particulars: C57BL/6, mouse, po, 10 mg/kg. The source holds these as a separate data set.
Data set [7] in a line: in vivo. As to conditions: C57BL/6, mouse, po, 10 mg/kg. This is another data set of the same source.
Data set [8] can be described thus: in vivo. Particulars: C57BL/6, mouse, po, 10 mg/kg. This is another data set of the same source.
The nature of data set [9]: in vivo. Particulars: C57BL/6, mouse, po, 100 mg/kg. This is another data set of the same source.
A short description of data set [10]: in vivo. Particulars: C57BL/6, mouse, po, 100 mg/kg. This is another data set of the same source.
The nature of data set [11]: in vivo. Particulars: C57BL/6, mouse, po, 30 mg/kg. The source holds these as a separate data set.
The nature of data set [12]: in vivo. Particulars: C57BL/6, mouse, po, 100 mg/kg. The source holds these as a separate data set.
A short description of data set [13]: in vivo. Particulars: C57BL/6, mouse, po, 30 mg/kg. This is another data set of the same source.
The nature of data set [14]: in vivo. Particulars: C57BL/6, mouse, po, 30 mg/kg. The source holds these as a separate data set.
Data set [15] can be described thus: in vivo. As to conditions: C57BL/6, mouse, po, 10 mg/kg. The source holds these as a separate data set.

The Cmax is the maximum level reached in the sampled fluid or tissue. Broadly, the AUC(0-t) is exposure summed from dosing to a finite time, without extrapolation to infinity. Lower therefore signals less exposure. Broadly, the Tmax is the time at which the peak concentration occurs. The half-life is the time in which the quantity being followed falls by half. Higher therefore signals slow decline. Broadly, the AUC(0-inf) is total exposure, with the tail of the curve extrapolated. Lower therefore signals low exposure.

For `C[C@@H]1CN(S(C)(=O)=O)CCN1Cc1cc2c(=O)n(C)cc(-c3ccn(C)n3)c2o1`, the values for the Cmax in the data set “in vivo [1]”, in “in vivo [11]” and in “in vivo [12]” were 383 ng/mL, 1400 ng/mL and 11000 ng/mL, respectively. The AUC(0-t) in “in vivo [2]” stood at 18700 ng·h/mL; in the data set “in vivo [4]” it was 2690 ng·h/mL; in the data set “in vivo [8]”, 934 ng·h/mL. Besides, the values for the time to peak (Tmax) in “in vivo [3]”, in the data set “in vivo [7]” and in the data set “in vivo [13]” were 0.5 h, 1.33 h and 0.83 h, respectively. Besides, the half-life in the data set “in vivo [5]” was 1.27 h; in the data set “in vivo [6]”, 1.05 h; in “in vivo [10]”, 1.98 h. Besides, the values for the AUC(0-inf) in “in vivo [9]”, in “in vivo [14]” and in “in vivo [15]” were 19200 ng·h/mL, 2750 ng·h/mL and 945 ng·h/mL, respectively.
